Literature values as cited in patent US20060205037A1, “Modified transferrin fusion proteins” (priority 2003, published 2006).

Conditions: in vivo; cited from earlier work

For exendin-4 [reference compound], the t1/2 is given as 2 to 4 h.
